{
  "sequences": {"note": "Amino acid sequences for entries named in this document (tags omitted). Residues count along the entry.", "UniProt P00533, 25-1210 T790M/L858R limits assumed": "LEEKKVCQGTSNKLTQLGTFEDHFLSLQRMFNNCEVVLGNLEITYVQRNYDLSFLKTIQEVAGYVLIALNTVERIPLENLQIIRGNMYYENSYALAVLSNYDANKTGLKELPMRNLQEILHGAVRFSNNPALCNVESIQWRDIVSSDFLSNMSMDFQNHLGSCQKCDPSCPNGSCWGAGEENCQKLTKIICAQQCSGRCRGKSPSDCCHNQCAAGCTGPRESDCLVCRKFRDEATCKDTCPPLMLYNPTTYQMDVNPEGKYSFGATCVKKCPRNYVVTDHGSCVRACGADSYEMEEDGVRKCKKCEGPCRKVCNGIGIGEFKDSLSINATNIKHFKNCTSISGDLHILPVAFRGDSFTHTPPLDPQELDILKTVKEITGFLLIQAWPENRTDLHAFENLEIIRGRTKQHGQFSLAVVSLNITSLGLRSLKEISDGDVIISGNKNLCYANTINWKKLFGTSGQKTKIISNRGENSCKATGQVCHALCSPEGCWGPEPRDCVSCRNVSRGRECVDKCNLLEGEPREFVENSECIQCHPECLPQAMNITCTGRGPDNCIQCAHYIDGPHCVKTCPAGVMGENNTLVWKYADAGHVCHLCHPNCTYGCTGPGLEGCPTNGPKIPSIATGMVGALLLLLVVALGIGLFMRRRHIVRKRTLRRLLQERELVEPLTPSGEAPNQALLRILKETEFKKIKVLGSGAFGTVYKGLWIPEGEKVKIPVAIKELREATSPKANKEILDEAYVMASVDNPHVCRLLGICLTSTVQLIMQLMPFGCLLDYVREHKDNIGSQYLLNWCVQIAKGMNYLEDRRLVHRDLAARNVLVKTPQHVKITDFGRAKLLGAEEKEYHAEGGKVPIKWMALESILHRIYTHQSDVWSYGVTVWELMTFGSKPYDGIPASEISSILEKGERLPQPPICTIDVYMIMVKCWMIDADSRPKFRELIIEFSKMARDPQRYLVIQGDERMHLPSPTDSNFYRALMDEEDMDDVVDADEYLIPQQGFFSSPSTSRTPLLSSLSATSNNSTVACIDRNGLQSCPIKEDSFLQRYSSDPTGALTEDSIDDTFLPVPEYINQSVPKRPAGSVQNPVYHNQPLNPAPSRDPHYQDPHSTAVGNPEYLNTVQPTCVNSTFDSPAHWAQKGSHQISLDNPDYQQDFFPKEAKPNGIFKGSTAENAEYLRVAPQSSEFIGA"},
  "source": "patent US9890152B2",
  "about": "(Genentech, Inc., priority 2012, dated 2018)",
  "data": [
    {"biological_target": "EGFR T790M L858R (Homo sapiens, UniProt P00533, L858R/T790M)", "assay": "biochemical", "details": "EGFR(T790M/L858R) Ki (μM)", "units": {"Ki": "µM"}, "values": [
      {"smiles": "CO[C@H]1CCN(c2nccc(Nc3cc4c(cn3)nc(C)n4C(C)C)n2)C[C@H]1F", "note": "(racemic) [Example 524, (±)-[2-((cis)-3-Fluoro-4-methoxypiperidin-1-yl)pyrimidin-4-yl]-(1-isopropyl-2-methyl-1H-imidazo[4,5-c]pyridin-6-yl)amine]", "Ki": 0.00273}
    ]},
    {"biological_target": "EGFR T790M L858R (Homo sapiens, UniProt P00533, L858R/T790M)", "assay": "biochemical", "details": "EGFR(T790M/L858R) Ki (μM), 5 μM ATP, 30 min, room temperature; apparent Ki (Morrison) converted by Cheng-Prusoff, Km of ATP 1.3 μM", "units": {"Ki": "µM"}, "values": [
      {"smiles": "Cc1nc2cnc(Nc3ccnc(N4CCC(O)C(F)(F)C4)n3)cc2n1C(C)C", "note": "(racemic) [Example 507, (±)-3,3-Difluoro-1-(4-((1-isopropyl-2-methyl-1H-imidazo[4,5-c]pyridin-6-yl)amino)pyrimidin-2-yl)piperidin-4-ol]", "Ki": 0.00615},
      {"smiles": "CO[C@@H]1CCN(c2nccc(Nc3cc4c(cn3)nc(C)n4C(C)C)n2)C[C@H]1O", "note": "(racemic) [Example 508, (±)-1-(4-((1-Isopropyl-2-methyl-1H-imidazo[4,5-c]pyridin-6-yl)amino)pyrimidin-2-yl)-4-methoxypiperidin-3-ol]", "Ki": 0.0242},
      {"smiles": "CO[C@H]1CN(c2nccc(Nc3cc4c(cn3)nc(C)n4C(C)C)n2)CC[C@@H]1O", "note": "(racemic) [Example 509, (±)-1-(4-((1-Isopropyl-2-methyl-1H-imidazo[4,5-c]pyridin-6-yl)amino)pyrimidin-2-yl)-3-methoxypiperidin-4-ol]", "Ki": 0.0634},
      {"smiles": "CC(C)n1c(CO)nc2cnc(Nc3ccnc(N4CC[C@H](O)[C@H](F)C4)n3)cc21", "note": "(racemic) [Example 510, (±)-3-Fluoro-1-(4-((2-(hydroxymethyl)-1-isopropyl-1H-imidazo [4,5-c]pyridin-6-yl)amino)pyrimidin-2-yl)piperidin-4-ol]", "Ki": 0.0135},
      {"smiles": "CO[C@H]1CCN(c2nccc(Nc3cc4c(cn3)nc(C)n4C(C)C)n2)[C@@H](C)C1", "note": "(racemic) [Example 511, (±)-1-Isopropyl-N-(2-(4-methoxy-2-methylpiperidin-1-yl)pyrimidin-4-yl)-2-methyl-1H-imidazo[4,5-c]pyridin-6-amine]", "Ki": 0.011},
      {"smiles": "CO[C@H]1CCN(c2nccc(Nc3cc4c(cn3)nc(C)n4C(C)C)n2)C[C@@H]1F", "note": "(racemic) [Example 525, (±)-[2-((trans)-3-Fluoro-4-methoxypiperidin-1-yl)pyrimidin-4-yl]-(1-isopropyl-2-methyl-1H-imidazo[4,5-c]pyridin-6-yl)amine]", "Ki": 0.0426},
      {"smiles": "CO[C@H]1CCN(c2nccc(Nc3cc4c(cn3)nc(CO)n4C(C)C)n2)C[C@H]1F", "note": "(racemic) [Example 526, (±)-{6-[2-((cis)-3-Fluoro-4-methoxypiperidin-1-yl)pyrimidin-4-ylamino]-1-isopropyl-1H-imidazo[4,5-c]pyridin-2-yl}methanol]", "Ki": 0.00285},
      {"smiles": "CO[C@H]1CCN(c2nccc(Nc3cc4c(cn3)nc(CO)n4C(C)C)n2)C[C@@H]1F", "note": "(racemic) [Example 527, (±)-{6-[2-((trans)-3-Fluoro-4-methoxypiperidin-1-yl)pyrimidin-4-ylamino]-1-isopropyl-1H-imidazo[4,5-c]pyridin-2-yl}methanol]", "Ki": 0.0542},
      {"smiles": "COC1CCN(c2nccc(Nc3cc4c(cn3)nc(C)n4C(C)C)n2)CC1(F)F", "note": "(racemic) [Example 528, (±)-[2-(3,3-Difluoro-4-methoxypiperidin-1-yl)pyrimidin-4-yl](1-isopropyl-2-methyl-1H-imidazo[4,5-c]pyridin-6-yl)amine]", "Ki": 0.00588},
      {"smiles": "Cc1nc2cnc(Nc3ccnc(N4CCCCC4C(F)(F)F)n3)cc2n1C(C)C", "note": "(racemic) [Example 530, (±)-(1-Isopropyl-2-methyl-1H-imidazo[4,5-c]pyridin-6-yl)[2-(2-trifluoromethyl-piperidin-1-yl)pyrimidin-4-yl]amine]", "Ki": 0.092},
      {"smiles": "CC(C)n1c(CO)nc2cnc(Nc3ccnc(N4CCCCC4C(F)(F)F)n3)cc21", "note": "(racemic) [Example 531, (±)-{1-Isopropyl-6-[2-(2-trifluoromethylpiperidin-1-yl)pyrimidin-4-ylamino]-1H-imidazo[4,5-c]pyridin-2-yl}methanol]", "Ki": 0.148},
      {"smiles": "COC(C)c1nc2cnc(Nc3ccnc(-c4cnn(S(=O)(=O)C5CC5)c4)n3)cc2n1C(C)C", "note": "(racemic) [Example 566, (±)-[2-(1-Cyclopropanesulfonyl-1H-pyrazol-4-yl)pyrimidin-4-yl]-[1-isopropyl-2-(1-methoxy-ethyl)-1H-imidazo[4,5-c]pyridin-6-yl]amine]", "Ki": 0.0119},
      {"smiles": "CC(C)n1c(C2CCO2)nc2cnc(Nc3ccnc(-c4cnn(S(=O)(=O)C5CC5)c4)n3)cc21", "note": "(racemic) [Example 570, (±)-[2-(1-Cyclopropanesulfonyl-1H-pyrazol-4-yl)pyrimidin-4-yl]-(1-isopropyl-2-oxetan-2-yl-1H-imidazo[4,5-c]pyridin-6-yl)amine]", "Ki": 0.00445},
      {"smiles": "Cc1nc2cnc(Nc3ccnc(C4CCOC4)n3)cc2n1C(C)C", "note": "(racemic) [Example 576, (±)-(1-Isopropyl-2-methyl-1H-imidazo[4,5-c]pyridin-6-yl)-[2-(tetrahydrofuran-3-yl)pyrimidin-4-yl]amine]", "Ki": 0.611},
      {"smiles": "Cc1nc2cnc(Nc3ccnc(N4CC[C@@H](S(C)(=O)=O)[C@H](F)C4)n3)cc2n1C(C)C", "note": "(racemic) [Example 616, [2-(±)-(trans-3-Fluoro-4-methanesulfonylpiperidin-1-yl)pyrimidin-4-yl]-(1-isopropyl-2-methyl-1H-imidazo[4,5-c]pyridin-6-yl)amine]", "Ki": 0.0601},
      {"smiles": "CS[C@H]1CCN(c2nccc(Nc3cc4c(cn3)nc(C)n4C(C)C)n2)C[C@H]1F", "note": "(racemic) [Example 617, [2-(±)-(cis-3-Fluoro-4-methylsulfanylpiperidin-1-yl)pyrimidin-4-yl]-(1-isopropyl-2-methyl-1H-imidazo[4,5-c]pyridin-6-yl)amine]", "Ki": 0.0143},
      {"smiles": "Cc1nc2cnc(Nc3ccnc(N4CC[C@H]([S+](C)[O-])[C@H](F)C4)n3)cc2n1C(C)C", "note": "(mixture of isomers) [Example 618, [2-(±)-(cis-3-Fluoro-4-methanesulfinylpiperidin-1-yl)pyrimidin-4-yl]-(1-isopropyl-2-methyl-1H-imidazo[4,5-c]pyridin-6-yl)amine]", "Ki": 0.0344},
      {"smiles": "CC(C)n1c(CO)nc2cnc(Nc3ccnc(N4CC[C@](C)(O)[C@H](F)C4)n3)cc21", "note": "(racemic) [Example 619, (3RS,4SR)-3-Fluoro-1-[4-(2-hydroxymethyl-1-isopropyl-1H-imidazo[4,5-c]pyridin-6-ylamino)pyrimidin-2-yl]-4-methylpiperidin-4-ol]", "Ki": 0.0302},
      {"smiles": "CS[C@H]1CCN(c2nccc(Nc3cc4c(cn3)nc(CO)n4C(C)C)n2)C[C@H]1F", "note": "(racemic) [Example 622, (±)-{6-[2-(cis-3-Fluoro-4-methylsulfanylpiperidin-1-yl)pyrimidin-4-ylamino]-1-isopropyl-1H-imidazo[4,5-c]pyridin-2-yl}methanol]", "Ki": 0.0184},
      {"smiles": "CC(C)n1c(CO)nc2cnc(Nc3ccnc(N4CC[C@H](O)[C@H](C(F)(F)F)C4)n3)cc21", "note": "(racemic) [Example 626, (±)-(cis)-1-(4-(2-(Hydroxymethyl)-1-isopropyl-1H-imidazo[4,5-c]pyridin-6-ylamino)pyrimidin-2-yl)-3-(trifluoromethyl)piperidin-4-ol]", "Ki": 0.306},
      {"smiles": "CC(C)n1c(CO)nc2cnc(Nc3ccnc(N4CC[C@@H](O)[C@H](C(F)(F)F)C4)n3)cc21", "note": "(racemic) [Example 627, (±)-(trans)-1-(4-(2-(Hydroxymethyl)-1-isopropyl-1H-imidazo[4,5-c]pyridin-6-ylamino)pyrimidin-2-yl)-3-(trifluoromethyl)piperidin-4-ol]", "Ki": 0.7},
      {"smiles": "CO[C@H]1CCN(c2nccc(Nc3cc4c(cn3)nc(CO)n4C(C)C)n2)C[C@H]1C(F)(F)F", "note": "(racemic) [Example 628, (1-Isopropyl-6-(2-((±)-(cis)-4-methoxy-3-(trifluoromethyl)piperidin-1-yl)pyrimidin-4-ylamino)-1H-imidazo[4,5-c]pyridin-2-yl)methanol]", "Ki": 0.0817},
      {"smiles": "CO[C@@H]1CCN(c2nccc(Nc3cc4c(cn3)nc(CO)n4C(C)C)n2)C[C@H]1C(F)(F)F", "note": "(racemic) [Example 629, (1-Isopropyl-6-(2-((±)-(trans)-4-methoxy-3-(trifluoromethyl)piperidin-1-yl)pyrimidin-4-ylamino)-1H-imidazo[4,5-c]pyridin-2-yl)methanol]", "Ki": 0.5},
      {"smiles": "CC(C)n1c(CO)nc2cnc(Nc3ccnc(N4CC[C@@H](O)[C@H](C)C4)n3)cc21", "note": "(racemic) [Example 630, (±)-(trans)-1-(4-(2-(Hydroxymethyl)-1-isopropyl-1H-imidazo[4,5-c]pyridin-6-ylamino)pyrimidin-2-yl)-3-methylpiperidin-4-ol]", "Ki": 0.0532},
      {"smiles": "CC(C)n1c(CO)nc2cnc(Nc3ccnc(N4CC[C@H](O)[C@H](C)C4)n3)cc21", "note": "(racemic) [Example 631, (±)-(cis)-1-(4-(2-(Hydroxymethyl)-1-isopropyl-1H-imidazo[4,5-c]pyridin-6-ylamino)pyrimidin-2-yl)-3-methylpiperidin-4-ol]", "Ki": 0.0767},
      {"smiles": "CO[C@@H]1CCN(c2nccc(Nc3cc4c(cn3)nc(CO)n4C(C)C)n2)C[C@@H]1C", "note": "(racemic) [Example 632, (1-Isopropyl-6-(2-((±)-(cis)-4-methoxy-3-methylpiperidin-1-yl)pyrimidin-4-ylamino)-1H-imidazo[4,5-c]pyridin-2-yl)methanol]", "Ki": 0.0295},
      {"smiles": "CC(C)n1c(CO)nc2cnc(Nc3ccnc(N4CC[C@@](O)(C5CC5)[C@H](F)C4)n3)cc21", "note": "(racemic) [Example 633, (3RS,4RS)-4-cyclopropyl-3-fluoro-1-(4-((2-(hydroxymethyl)-1-isopropyl-1H-imidazo[4,5-c]pyridin-6-yl)amino)pyrimidin-2-yl)piperidin-4-ol]", "Ki": 0.0767},
      {"smiles": "CO[C@@H]1CCN(c2nccc(Nc3cc4c(cn3)nc(CO)n4C(C)C)n2)C[C@@H]1Cl", "note": "(racemic) [Example 634, (6-(2-((±)-(cis)-3-Chloro-4-methoxypiperidin-1-yl)pyrimidin-4-ylamino)-1-isopropyl-1H-imidazo[4,5-c]pyridin-2-yl)methanol]", "Ki": 0.00828},
      {"smiles": "CCC(C)n1cc(C(=O)NC2CCOCC2)c2cnc(Nc3ccnc(N4CCC(C)(O)CC4)n3)cc21", "note": "(racemic) [Example 638, 1-(sec-butyl)-6-((2-(4-hydroxy-4-methylpiperidin-1-yl)pyrimidin-4-yl)amino)-N-(tetrahydro-2H-pyran-4-yl)-1H-pyrrolo[3,2-c]pyridine-3-carboxamide]", "Ki": 0.00435}
    ]}
  ]
}
